# Measurements as given in patent publication US5840485A, “Topologically segregated, encoded solid phase libraries” (priority 1994, dated 1998).
# System: anti-β-endorphin monoclonal antibody (clone 3-E 7)
# Assay: Screening of encoded peptide library XXXX-Lys(XXXX)-Lys(ZZ) on beads
# Type: binding
# Details: Table 3, two cycles of Edman degradation
# Method: The peptide library was screened according to published procedures (Lam and Lebl, 1992, Immunomethods 1: 11-15). The peptide beads were first mixed with double-distilled water to remove the DMF. After extensive washing with PBS (137 mM NaCl, 2.7 mM KCl, 4.3 mM Na2 HPO4, 1.4 mM KH2 PO4, pH 7.2), the beads were coated with 0.05% gelatin (w/v) to block any nonspecific binding. The beads were then incubated with a 1:100,000 dilution of streptavidin-alkaline phosphatase at 2 mg/ml (Pierce; Rockford, Ill.) in 2× PBS/Tween/gelatin (2× PBS, 0.1% Tween-20 (v/v), and 0.05% gelatin (w/v)). The beads were then thoroughly washed with TBS (137 mM NaCl, 2.7 mM KCl, 25 mM Tris base, pH 7.4) and the standard substrate 5-bromo-4-chloro-3-indolyl phosphate was added. The beads, together with the substrate, were then transferred to petri dishes for color development. After 30 minutes to 1 hour, the colored beads were collected, with the aid of a micropipette, washed with 6M guanidine hydrochloride, pH 1.0, and subjected to sequencing as described.
# The remaining library of colorless beads were then recycled with 8M guanidine hydrochloride, pH 2.0, thoroughly washed with PBS, and incubated with 60 pM biotinylated anti-β-endorphin (clone 3-E 7, Boehringer Mannheim) in 2× PBS/Tween/gelatin overnight. After thorough washing, streptavidin-alkaline phosphatase was added. […]
substance,measurement,value
YGGL: test peptide sequence deduced from positive beads of the encoded library,"Target of positive bead, deduced sequence",anti-β-endorphin
